## Ab-14 heavy chain CDR variants: yeast mating affinities

Target: peptide PDVDLGDISGINAS, taken from heptad repeat 2 (HR2) of SARS-CoV-2 spike.

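The parent was found by panning a naive human phage display library on the peptide. Designed CDR sequences, proposed from the first random library and measured here. Their group label is 14H_En_Gen (En: ensemble of fine-tuned language models; Gen: genetic algorithm). The scFvs were displayed on barcoded MATa yeast, the peptide on MATalpha yeast. Pairs that bind mate more often; barcode pairs of the diploids are counted by sequencing. Read counts were normalised to the haploid input and turned into Kd by a linear fit to BCL2-family pairs of known affinity, for each replicate. Mating was done six times.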

Parent scFv Ab-14: VH joined to VL by three GGGGS repeats. Changes lie in the heavy chain CDRs alone.
VH: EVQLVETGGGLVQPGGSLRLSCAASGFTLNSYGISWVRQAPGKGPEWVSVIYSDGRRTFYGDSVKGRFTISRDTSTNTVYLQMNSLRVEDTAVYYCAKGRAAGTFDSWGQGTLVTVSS
VL: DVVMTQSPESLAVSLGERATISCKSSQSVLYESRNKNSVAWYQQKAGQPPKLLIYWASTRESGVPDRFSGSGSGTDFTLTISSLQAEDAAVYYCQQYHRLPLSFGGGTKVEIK

Each variant is given by its three heavy chain CDRs, as the data file delimits them; those of the parent are GFTLNSYGIS, VIYSDGRRTFYGDSVK, GRAAGTFDS.
Scale: log10 of Kd in nM, estimated from mating counts; low values are strong binders.
Averages over replicates are reported, and they cover detected replicates only.
"ND" means that the variant was in the library but no mating with the target was seen in that replicate; the authors take this as a sign of poor binding, and no number exists.

{"CDR-H1": "GFDLDEYGIS", "CDR-H2": "VIYADGSRTAYADSVK", "CDR-H3": "GEVAGTFDQ", "log10 Kd (nM) by replicate": "0.05 -0.04 -0.62 -1.04 -0.29 -0.65", "log10 Kd (nM), mean": "-0.43", "signal with controls": "0/18"}
{"CDR-H1": "GFDLNEYGIS", "CDR-H2": "VIYADGRRTAYADSVK", "CDR-H3": "GNEAGTFDM", "log10 Kd (nM) by replicate": "-0.47 -0.44 -0.51 -0.80 -0.39 -0.44", "log10 Kd (nM), mean": "-0.51", "signal with controls": "0/18"}
{"CDR-H1": "GFDLNEYGIS", "CDR-H2": "VIYADGIRTAYADSVK", "CDR-H3": "GENAGTFDV", "log10 Kd (nM) by replicate": "-0.14 -0.39 -0.02 -0.24 -0.63 0.19", "log10 Kd (nM), mean": "-0.20", "signal with controls": "0/18"}
{"CDR-H1": "GFDLDEYGIS", "CDR-H2": "VIYADGKRTAYANSVK", "CDR-H3": "GEVAGTFDV", "log10 Kd (nM) by replicate": "ND -0.76 -0.36 -0.48 0.37 0.50", "log10 Kd (nM), mean": "-0.14", "signal with controls": "0/18"}
{"CDR-H1": "GFDLNEYGIS", "CDR-H2": "VIYADGRRTAYADDVK", "CDR-H3": "GNVAGTFDM", "log10 Kd (nM) by replicate": "-0.37 -0.11 -0.09 -0.63 -0.49 0.09", "log10 Kd (nM), mean": "-0.27", "signal with controls": "0/18"}
{"CDR-H1": "GFDLNEYGIS", "CDR-H2": "VIYADGKRTAYIDSVK", "CDR-H3": "GNVAGTFDT", "log10 Kd (nM) by replicate": "-0.79 -0.73 -0.82 -1.04 -1.24 -0.76", "log10 Kd (nM), mean": "-0.90", "signal with controls": "0/18"}
{"CDR-H1": "GFDLNEYGIS", "CDR-H2": "VIYADGVRTAYVDSVK", "CDR-H3": "GGNAGTFDV", "log10 Kd (nM) by replicate": "-0.75 -1.08 -0.93 -1.11 -0.93 -0.85", "log10 Kd (nM), mean": "-0.94", "signal with controls": "1/18 (1.46)"}
{"CDR-H1": "GFDLDEYGIS", "CDR-H2": "VIYADGMRTAYADDVK", "CDR-H3": "GETAGTFDL", "log10 Kd (nM) by replicate": "0.73 0.68 0.50 0.15 0.73 0.87", "log10 Kd (nM), mean": "0.61", "signal with controls": "0/18"}
{"CDR-H1": "GFDLNEYGIS", "CDR-H2": "VIYADGMRTAYADSVK", "CDR-H3": "GETAGTFDT", "log10 Kd (nM) by replicate": "-0.08 -0.46 -0.68 -0.18 -0.19 -0.49", "log10 Kd (nM), mean": "-0.35", "signal with controls": "0/18"}
{"CDR-H1": "GFDLNEYGIS", "CDR-H2": "VIYADGVRTAYADSVK", "CDR-H3": "GEIAGTFDI", "log10 Kd (nM) by replicate": "-0.19 -0.26 -0.98 -0.52 -0.46 0.05", "log10 Kd (nM), mean": "-0.39", "signal with controls": "0/18"}
{"CDR-H1": "GFDLDEYGIS", "CDR-H2": "VIYADGMRTAYTDSVK", "CDR-H3": "GNTAGTFDQ", "log10 Kd (nM) by replicate": "0.54 -0.46 -0.25 -1.45 -0.10 0.19", "log10 Kd (nM), mean": "-0.26", "signal with controls": "0/18"}
{"CDR-H1": "GFDLNEYGIS", "CDR-H2": "VIYADGKRTAYADSVK", "CDR-H3": "GNTAGTFDQ", "log10 Kd (nM) by replicate": "-0.33 -0.31 -0.66 -0.71 -0.82 -0.30", "log10 Kd (nM), mean": "-0.52", "signal with controls": "0/18"}
{"CDR-H1": "GFDLDEYGIS", "CDR-H2": "VIYADGVRTAYADSVK", "CDR-H3": "GGNAGTFDV", "log10 Kd (nM) by replicate": "-0.27 0.07 -0.59 -0.40 -0.28 0.08", "log10 Kd (nM), mean": "-0.23", "signal with controls": "0/18"}
{"CDR-H1": "GFDLNEYGIS", "CDR-H2": "VIYADGQRTAYIDSVK", "CDR-H3": "GNVAGTFDV", "log10 Kd (nM) by replicate": "-0.59 -0.90 -0.68 -0.97 -0.74 -0.72", "log10 Kd (nM), mean": "-0.77", "signal with controls": "1/18 (1.96)"}
{"CDR-H1": "GFDLDEYGIS", "CDR-H2": "VIYADGMRTAYSDSVK", "CDR-H3": "GNQAGTFDV", "log10 Kd (nM) by replicate": "-0.44 -0.26 -0.21 -0.45 -0.26 -0.29", "log10 Kd (nM), mean": "-0.32", "signal with controls": "0/18"}
{"CDR-H1": "GFDLNEYGIS", "CDR-H2": "VIYADGVRTYYADSVK", "CDR-H3": "GNEAGTFDV", "log10 Kd (nM) by replicate": "-1.05 -1.04 -1.61 -1.10 -0.99 -0.85", "log10 Kd (nM), mean": "-1.11", "signal with controls": "0/18"}
{"CDR-H1": "GFDLDEYGIS", "CDR-H2": "VIYADGMRTAYADDVK", "CDR-H3": "GETAGTFDQ", "log10 Kd (nM) by replicate": "-0.23 -0.55 -0.40 -0.68 -0.50 0.05", "log10 Kd (nM), mean": "-0.39", "signal with controls": "1/18 (1.68)"}
{"CDR-H1": "GFDLDEYGIS", "CDR-H2": "VIYADGVRKAYADSVK", "CDR-H3": "GEVAGTFDV", "log10 Kd (nM) by replicate": "-0.36 -0.73 -0.82 -0.76 -0.58 -0.44", "log10 Kd (nM), mean": "-0.62", "signal with controls": "0/18"}
{"CDR-H1": "GFDLNEYGIS", "CDR-H2": "VIYADGVRTAYADDVK", "CDR-H3": "GNQAGTFDL", "log10 Kd (nM) by replicate": "-0.05 -0.27 -0.36 -0.13 -0.27 -0.12", "log10 Kd (nM), mean": "-0.20", "signal with controls": "1/18 (2.09)"}
{"CDR-H1": "GFDLDEYGIS", "CDR-H2": "VIYADGQRTVYADSVK", "CDR-H3": "GNQAGTFDV", "log10 Kd (nM) by replicate": "0.92 -0.34 -0.21 -0.33 0.05 -0.04", "log10 Kd (nM), mean": "0.01", "signal with controls": "0/18"}
{"CDR-H1": "GFDLNEYGIS", "CDR-H2": "VIYADGIRTAYTDSVK", "CDR-H3": "GNVAGTFDV", "log10 Kd (nM) by replicate": "0.33 0.71 0.89 0.39 0.53 1.11", "log10 Kd (nM), mean": "0.66", "signal with controls": "1/18 (1.59)"}

Repeated from above, the 2 best binders with a signal in all replicates:

{"CDR-H1": "GFDLNEYGIS", "CDR-H2": "VIYADGVRTYYADSVK", "CDR-H3": "GNEAGTFDV", "log10 Kd (nM) by replicate": "-1.05 -1.04 -1.61 -1.10 -0.99 -0.85", "log10 Kd (nM), mean": "-1.11", "signal with controls": "0/18"}
{"CDR-H1": "GFDLNEYGIS", "CDR-H2": "VIYADGVRTAYVDSVK", "CDR-H3": "GGNAGTFDV", "log10 Kd (nM) by replicate": "-0.75 -1.08 -0.93 -1.11 -0.93 -0.85", "log10 Kd (nM), mean": "-0.94", "signal with controls": "1/18 (1.46)"}

The parent sequence was in this pool as ten entries: three were never detected, three once, and four in most replicates, with averages from 0.34 to 2.37.
As a blank, each scFv also met three strains without target: over all heavy chain designs, 1% of these pairings were detected, typically at 2.08 and seldom below 0.84. For each scFv, signals with the empty controls are counted beside the result, with their mean in brackets.
In the paper, a design with two or fewer of six values counts as a poor binder.
Values of this round are not directly comparable with the first-round values of the same sequences.

Values reported by Li et al. 2023, doi:10.1038/s41467-023-39022-2 (FLAb copy).